US20220409601A1, “COMBINATION CANNABINOID-NAD+ PRECURSOR FORMULATION FOR TREATMENT OF INFLAMMATION AND METHODS RELATED THERETO” (priority 2019, published 2022)

Test system: chondrocytes (C-28/I2)
Assay: toxicity screen, maximum tolerable concentration in chondrocytes
Conditions: 24 hours post-treatment, serum free, microscopy (vacuolation, blebbing, reduced cell count)
Description: A clonal derivative of ATCC-certified normal chondrocytes was used for a study to determine cytokine expression. The parent line was originally derived from costal cartilage of adolescent […]. The cell line used is C-28/I2 accession number CVCL 0187. The cells were immortalized via retroviral vector-mediated SV40 Large T antigen expression. Cells were confirmed negative for mycoplasma contamination and genotyped by STR analysis to verify cell identity. This cell line is widely used as a model for studying normal and pathological cartilage repair mechanisms and inflammation.
The cells were cultured at 37° C. with 5% CO2, DMEM/F12 media supplemented with 10% heat-inactivated fetal bovine serum. Antimicrobials were not added to the media. Cells were maintained between 40 and 80% confluency to avoid terminal differentiation. Cells used for the experiments had been passaged no more than ten times prior to each experiment.
A series of pilot studies were performed to design the final full-scale experiment. First, a toxicity screen for each test compound was performed to establishment maximum tolerable concentrations in this model system. Second, assays were run to establish the optimal means of inducing a pro-inflammatory state in the cell culture system. […]

nicotinamide ribose
maximum tolerable concentration: 1 mM
